The record followed here is article PMC5679017.

Chains of the proteins cited; added tags and fusions are not shown. Lines headed by an entry give the natural chain unless they say otherwise; changes in a name come on top.
UniProt P56450, whole entry: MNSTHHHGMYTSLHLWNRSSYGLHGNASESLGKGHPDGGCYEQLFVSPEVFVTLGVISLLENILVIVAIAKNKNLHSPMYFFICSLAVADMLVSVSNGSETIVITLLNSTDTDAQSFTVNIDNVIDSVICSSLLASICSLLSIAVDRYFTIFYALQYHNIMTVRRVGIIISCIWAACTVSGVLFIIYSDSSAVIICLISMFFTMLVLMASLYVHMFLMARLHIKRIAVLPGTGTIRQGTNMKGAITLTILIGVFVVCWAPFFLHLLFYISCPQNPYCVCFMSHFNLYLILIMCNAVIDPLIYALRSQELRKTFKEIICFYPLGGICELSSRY
UniProt Q01727: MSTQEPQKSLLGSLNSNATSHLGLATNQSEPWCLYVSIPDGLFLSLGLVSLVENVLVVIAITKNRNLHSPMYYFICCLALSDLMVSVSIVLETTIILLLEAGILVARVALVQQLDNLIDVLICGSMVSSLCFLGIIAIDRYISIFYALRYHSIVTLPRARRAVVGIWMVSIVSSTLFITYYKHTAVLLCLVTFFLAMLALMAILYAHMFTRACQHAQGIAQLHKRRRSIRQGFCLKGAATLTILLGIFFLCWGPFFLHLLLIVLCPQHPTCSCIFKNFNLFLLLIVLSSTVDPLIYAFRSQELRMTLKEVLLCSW

For assay [1], the target named is mouse melanocortin-4 receptor (mouse) (UniProt P56450). The assay is described as follows: radioligand binding.
Assay [2] has as its target mouse melanocortin-1 receptor (mouse) (UniProt Q01727). The assay is described as follows: radioligand binding.

For Ac-His-DPhe-Arg-Trp-NH2 (peptide), the IC50 was 0.214 µM in assay [1] and 0.388 µM in assay [2].

The IC50 is the concentration at which inhibition is half-maximal. Low values mean higher potency, high ones lower potency.
